Assay results reported in patent US20240415985A1, “PHOTOCLEAVABLE PRODRUG-BASED NANOMEDICINE FOR IN-SITU MONITORABLE CANCER THERAPY” (The University of Hong Kong, priority 2021, published 2024).

Test system: human umbilical vein endothelial cells (HUVECs)
Test: Cytotoxicity in dark, biocompatibility evaluation
Type: cell-based
Details: 24 h, up to 100 μM
Method: HCT116 cells were cultured in RPMI-1640 (Gibco) supplemented with 10% FBS (Gibco) and 100 units/mL antibiotics (Penicillin-Streptomycin, Gibco) at 37° C. in a 5% CO2 humidified atmosphere. HUVECs cells were cultured in DMEM (Gibco) supplemented with 10% FBS (Gibco) and 100 units/mL antibiotics (Penicillin-Streptomycin, Gibco) at 37° C. in a 5% CO2 humidified atmosphere.
The cell viability was evaluated by MTT assay. HCT116 cells were incubated in 96-well microliter plates for 24 h. Then, gradient concentrations of BC prodrug or IR783/BC NPs in RPMI 1640 culture medium were added to the cells. After 6 h incubation, the residual BC or IR783/BC NPs were removed by fresh RPMI 1640 culture medium (100 μL). Then, the cells were irradiated by 530 nm LED light (50 mW/cm^2, 5 min) or incubated at room temperature without light. After another incubation for 24 h, MTT solution (10 μL, 10 mg/mL) was added to the cells to cultivate for 3 h. Next, the cell culture medium was discarded, and DMSO (100 μL) was then added. The absorbance was measured by a multi-mode microplate reader at 490 nm, 570 nm and 630 nm.

## boron-dipyrromethene-chlorambucil [BC]
  cytotoxicity in dark: Negligible cytotoxicity
